This assay has as its target xanthine oxidase from buttermilk (Bos taurus, UniProt P80457). The assay can be described thus: Xanthine oxidase inhibitory assay (XOI).

Sequences of proteins named here, by UniProt entry; tags and fusion partners are left off.
UniProt P80457, whole entry: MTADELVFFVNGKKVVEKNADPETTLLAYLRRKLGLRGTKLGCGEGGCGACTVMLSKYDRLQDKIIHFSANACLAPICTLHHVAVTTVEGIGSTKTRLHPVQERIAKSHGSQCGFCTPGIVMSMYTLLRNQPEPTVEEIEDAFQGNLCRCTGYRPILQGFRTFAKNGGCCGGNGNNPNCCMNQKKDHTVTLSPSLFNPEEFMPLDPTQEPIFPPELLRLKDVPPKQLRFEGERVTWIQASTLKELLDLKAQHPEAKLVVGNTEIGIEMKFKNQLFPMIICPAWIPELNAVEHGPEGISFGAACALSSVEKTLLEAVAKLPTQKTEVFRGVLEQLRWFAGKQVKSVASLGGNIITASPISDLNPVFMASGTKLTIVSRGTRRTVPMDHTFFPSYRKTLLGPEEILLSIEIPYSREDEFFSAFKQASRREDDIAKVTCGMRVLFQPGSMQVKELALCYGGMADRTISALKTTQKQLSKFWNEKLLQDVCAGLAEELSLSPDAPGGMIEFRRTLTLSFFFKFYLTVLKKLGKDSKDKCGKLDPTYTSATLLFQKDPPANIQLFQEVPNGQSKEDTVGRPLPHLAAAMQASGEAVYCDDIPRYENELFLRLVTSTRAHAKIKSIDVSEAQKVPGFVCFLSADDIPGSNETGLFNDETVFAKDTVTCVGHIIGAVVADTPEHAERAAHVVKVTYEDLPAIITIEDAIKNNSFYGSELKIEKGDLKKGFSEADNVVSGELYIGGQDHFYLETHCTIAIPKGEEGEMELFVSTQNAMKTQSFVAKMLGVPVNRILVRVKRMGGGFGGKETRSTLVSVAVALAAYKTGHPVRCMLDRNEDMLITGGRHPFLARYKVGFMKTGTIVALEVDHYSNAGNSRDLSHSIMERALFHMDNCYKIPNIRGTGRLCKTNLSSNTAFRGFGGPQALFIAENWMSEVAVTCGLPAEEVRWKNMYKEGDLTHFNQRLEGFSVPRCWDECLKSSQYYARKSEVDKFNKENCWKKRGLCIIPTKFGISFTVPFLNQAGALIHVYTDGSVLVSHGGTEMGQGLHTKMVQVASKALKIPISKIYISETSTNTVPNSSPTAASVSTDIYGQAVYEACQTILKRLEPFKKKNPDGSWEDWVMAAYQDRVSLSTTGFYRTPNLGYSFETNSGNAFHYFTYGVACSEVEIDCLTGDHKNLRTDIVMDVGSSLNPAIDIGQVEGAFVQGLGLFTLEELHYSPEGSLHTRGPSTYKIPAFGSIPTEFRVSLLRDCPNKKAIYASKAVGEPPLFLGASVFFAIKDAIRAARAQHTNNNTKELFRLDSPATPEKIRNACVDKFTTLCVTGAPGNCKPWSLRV

“And” between values parts separate entries of the source, which are not always exact repeats. Equal entries are not always repeated.

The term IC50 denotes the concentration that gives 50% inhibition. Take `O=c1c(O)c(-c2ccc(O)cc2)oc2cc(O)cc(O)c12` [Kaempferol, 4′,3,5,7-Tetrahydroxyflavone]: the IC50 is 28.2 µM and 57.2 µM.

These data come from article PMC5727842, “Antioxidant and Antidiabetic Effects of Flavonoids: A Structure-Activity Relationship Based Study” (BioMed Research International, 2017).
